Measurements published in patent publication US7906510B2, “Amide derivative and pharmaceutical composition containing the same” (Dainippon Sumito Pharma Co., Ltd., priority 2008, dated 2011).

By UniProt entry, the sequences of proteins in these tests, tags left out.
UniProt O70528, whole entry: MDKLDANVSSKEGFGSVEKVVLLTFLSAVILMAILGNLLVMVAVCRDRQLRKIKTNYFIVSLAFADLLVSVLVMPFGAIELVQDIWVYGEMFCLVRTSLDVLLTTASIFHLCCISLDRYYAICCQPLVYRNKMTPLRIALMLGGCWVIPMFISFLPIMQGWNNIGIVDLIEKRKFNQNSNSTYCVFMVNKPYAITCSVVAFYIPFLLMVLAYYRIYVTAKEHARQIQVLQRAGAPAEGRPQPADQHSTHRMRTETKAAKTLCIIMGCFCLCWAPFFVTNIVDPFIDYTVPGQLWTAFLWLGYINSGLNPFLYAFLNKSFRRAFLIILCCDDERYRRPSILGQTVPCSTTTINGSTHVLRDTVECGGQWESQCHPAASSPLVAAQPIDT

Biological target: 5-HT4 receptor (Cavia porcellus, UniProt O70528)
Assay: Serotonin 4 (5-HT4) receptor binding assay
Settings: inhibition of specific binding of 0.1 nM [3H]-GR113808, guinea pig striatum membrane preparations, 37° C., 30 minutes
Method: 5-HT4 receptor binding assay and preparations of receptor membrane preparations were carried out according to a method of Grossman et al. [see British J. Pharmacol., (1993) 109, 618].
Slc-Hartley guinea pigs (body weight 300 to 400 g) were decapitated to remove brain rapidly, and striatum was isolated. To the obtained tissues were added fifteenfold of Hepes buffer (50 mM, pH7.4, 4° C.), and the mixture was homogenized by Teflon® homogenizer and centrifuged at 48,000×g (4° C.) for 15 minutes. To the resulting precipitate was added Hepes buffer (1 ml) to 30 mg by wet weight of tissues, and the mixture was suspended to give receptor membrane preparations.
0.1 nM [^3H]-GR113808 {chemical name: [1-[2-(methylsulfonylamino)ethyl]-4-piperidinyl]methyl 1-methylindole-3-carboxylate}, receptor membrane preparations, and Hepes buffer (50 mM, pH7.4, 4° C., 1 ml) containing test compounds or 30 μM serotonin were placed in an assay tube, and incubated at 37° C. for 30 minutes. On quenching the reaction, the mixture was rapidly filtered on whatman GF/B filter, which was presoaked in 0.1% polyethyleneimine for 1 hour, by using Brandel cell Harvester, and washed with ice-cooled 50 mM Tris-HCl (pH7.7, 4 ml) three times. To the filter after filtration was added ACS II scintillator, and then a radioactivity was determined by a liquid scintillation counter.
50% inhibition concentrations (IC50) were determined from inhibition rates of test compounds to specific bindings which were obtained by subtracting nonspecific bindings from total binding amounts of [^3H]-GR113808. […] The term “test compound” in Table means the following Example number.

## CCOc1cc(N)c(Cl)cc1C(=O)NCC1CN(CC2CCN(C(=O)/C=C/C3CC3)CC2)CCO1 (stereo not drawn)
Tested form: 1.5 fumarate
  IC50: 5.54 nM

## CCOc1cc(N)c(Cl)cc1C(=O)NCC1CN(CC2CCN(C(=O)/C=C/c3cccs3)CC2)CCO1 (stereo not drawn)
  IC50: 3.53 nM

## CCOc1cc(N)c(Cl)cc1C(=O)NCC1CN(CC2CCN(C(=O)/C=C/c3ccco3)CC2)CCO1 (stereo not drawn)
Tested form: 3/2 fumarate
  IC50: 2.8 nM
